The results in this text go back to article PMC6968685 (Journal of Enzyme Inhibition and Medicinal Chemistry, 2020).

Type in all cases: cell-based
For assay [1], the system named is T. brucei brucei AnTat 1.9. The assay is described as follows: In vitro antitrypanosomal activity, Alamar Blue assay. To be noted: SI = CC50 HepG2 / IC50 Trypanosoma brucei brucei. The method, then:
The effects of the tested compounds on the growth of T. brucei brucei were assessed using an Alamar Blue® assay described by Räz et al.[49] T. brucei brucei AnTat 1.9 (IMTA, Antwerpen, Belgium) was cultured in MEM with Earle’s salts, supplemented according to the protocol of Baltz et al.[50] with the following modifications: 0.5 mM mercaptoethanol (Sigma Aldrich), 1.5 mM L-cysteine (Sigma Aldrich), 0.05 mM bathocuproine sulphate (Sigma Aldrich), and 20% heat-inactivated horse serum (Gibco, France) at 37 °C and 5% CO2. Samples were incubated at an average density of 2000 parasites/well in sterile 96-wells plates (Fisher, France) with various concentrations of compounds dissolved in 0.9% NaCl. All doses were tested in duplicate. Appropriate controls treated with solvents 0.9% NaCl or DMSO or with suramin, pentamidine, eflornithine, and fexinidazole (reference drugs purchased from Sigma Aldrich and Fluorochem, UK) were added to each set of experiments. After 69 h incubation period at 37 °C, 10 µl of the viability marker Alamar Blue (Fisher) was added to each well, and the plates were incubated for 5 h. The plates were read in a PerkinElmer ENSPIRE (Germany) microplate reader using an excitation wavelength of 530 nm and an emission wavelength of 590 nm. […] IC50 values were calculated using a nonlinear regression analysis of dose-response curves performed using GraphPad Prism software (La Jolla, CA). IC50 values were calculated from three independent experiments.

The test system of assay [2] is P. falciparum CQ-resistant strain W2. As to the kind of experiment: In vitro antiplasmodial activity, SYBR Green I fluorescence-based method, strain W2. To be noted: SI = CC50 HepG2 / IC50 P. falciparum W2. How it is done:
(§1) The in vitro antiplasmodial activities were tested over concentrations ranging from […] against culture-adapted P. falciparum reference strains 3D7 and W2. […] The parasites were cultivated in RPMI medium (Sigma-Aldrich, Lyon, France) supplemented with 0.5% Albumax I (Life Technologies Corporation, Paisley, UK), hypoxanthine (Sigma-Aldrich), and gentamicin (Sigma-Aldrich) with human erythrocytes and were incubated at 37 °C in a candle jar, as described previously[43] .The P. falciparum drug susceptibility test was carried out in 96-well flat-bottom sterile plates in a final volume of 250 µl. After 48 h incubation period with the drugs, quantities of DNA in treated and control cultures of parasites in human erythrocytes were quantified using the SYBR Green I (Sigma-Aldrich) fluorescence-based method[44]^,[45]. Briefly, after incubation, plates were frozen at −20 °C until use. Plates were then thawed for 2 h at room temperature, and 100 µl of each homogenised culture was transferred to a well of a 96-well flat-bottom sterile black plate (Nunc, Inc., Rochester, NY) that contained 100 µl of the SYBR Green I lysis buffer (2xSYBR Green, 20 mM Tris base pH 7.5, 5 mM EDTA, 0.008% w/v saponin, 0.08% w/v Triton X-100). […] Plates were incubated for 1 h at room temperature and then read on a fluorescence plate reader (Tecan, Grödig, Austria) using excitation and emission wavelengths of 485 and 535 nm, respectively. IC50 values were calculated by non-linear regression analysis of data from dose-response curves, using TableCurve 2D version 5.0 software (Systat Software, San Jose, CA). IC50 values are reported as means calculated from three independent experiments.

The test system of assay [3] is P. falciparum CQ-sensitive strain 3D7. The assay is described as follows: In vitro antiplasmodial activity, SYBR Green I fluorescence-based method, strain 3D7. To be noted: SI = CC50 HepG2 / IC50 P. falciparum 3D7. The method, then: as §1

The structures appear in SMILES notation. Where “and” joins values, the source holds several entries; their conditions need not be identical. Equal entries are not always repeated.

With `CN1CCN(CCNCc2ccc(-c3cc(-c4ccc(CNCCN5CCN(C)CC5)cc4)c4ccccc4n3)cc2)CC1` [Compound 1f, 2,4-Bis{4-[(2–(4-methylpiperazin-1-yl)ethyl)aminomethyl]phenyl}quinoline], in assay [1], the “Selectivity index HepG2/Tryp.” value came to 4.13. Also, in assay [2], the “Selectivity index HepG2/W2” value was 31.46. The “Selectivity index HepG2/3D7” value in assay [3] is recorded as 1.69.
The corresponding values for `COc1ccc2c(-c3ccc(CNCCCN(C)C)cc3)nc(-c3ccc(CNCCCN(C)C)cc3)cc2c1` [Compound 2j, 6-Methoxy-1,3-bis{4-[(3-dimethylaminopropyl)aminomethyl]phenyl}isoquinoline] are 3.66, 0.42 and 0.30.
`COc1ccc2nc(-c3ccc(CNCCCCN(C)C)cc3)nc(-c3ccc(CNCCCCN(C)C)cc3)c2c1` [Compound 3h, 6-Methoxy-2,4-bis{4-[(4-dimethylaminobutyl)aminomethyl]phenyl}quinazoline]: the “Selectivity index HepG2/Tryp.” value in assay [1] was 43 and 43.22. In addition, the “Selectivity index HepG2/W2” value in assay [2] was found to be 3.17. The “Selectivity index HepG2/3D7” value in assay [3] is 3.04.
With `c1ccc2c(-c3ccc(CNCCCN4CCOCC4)cc3)cc(-c3ccc(CNCCCN4CCOCC4)cc3)nc2c1` [Compound 1g, 2,4-Bis{4-[(3-morpholinopropyl)aminomethyl]phenyl}quinoline], the “Selectivity index HepG2/Tryp.” value in assay [1] is recorded as 3.87. Further, the “Selectivity index HepG2/3D7” value in assay [3] was determined as 14.85.
For the molecule `CN(C)CCNCc1ccc(-c2cc(-c3ccc(CNCCN(C)C)cc3)c3ccccc3n2)cc1` [Compound 1c, 2,4-Bis{4-[(2-dimethylaminoethyl)aminomethyl]phenyl}quinoline], the “Selectivity index HepG2/Tryp.” value in assay [1] is listed as 2.09. For the same molecule, the “Selectivity index HepG2/W2” value in assay [2] was 9.11. The “Selectivity index HepG2/3D7” value in assay [3] is 97 and 96.88.
Regarding `c1cc(CNCCN2CCOCC2)cc(-c2nc(-c3cccc(CNCCN4CCOCC4)c3)c3ccccc3n2)c1` [Compound 3v, 2,4-Bis{3-[(2-morpholinoethyl)aminomethyl]phenyl}quinazoline], the “Selectivity index HepG2/Tryp.” value in assay [1] was 4.72. Besides, in assay [3], the “Selectivity index HepG2/3D7” value amounted to 17.94.
For the molecule `CN(C)CCCNCc1ccc(-c2nc(-c3ccc(CNCCCN(C)C)cc3)c3ccccc3n2)cc1` [Compound 3b, 2,4-Bis{4-[(3-dimethylaminopropyl)aminomethyl]phenyl}quinazoline], the “Selectivity index HepG2/Tryp.” value in assay [1] is on record as 3.40. In assay [3], the “Selectivity index HepG2/3D7” value was 6.47.
Turning to `COc1ccc2nc(-c3ccc(CNCCCN(C)C)cc3)nc(-c3ccc(CNCCCN(C)C)cc3)c2c1` [Compound 3i, 6-Methoxy-2,4-bis{4-[(3-dimethylaminopropyl)aminomethyl]phenyl}quinazoline], in assay [2], the “Selectivity index HepG2/W2” value stood at 0.44. In assay [3], the “Selectivity index HepG2/3D7” value is on record as 0.48.
`CN1CCN(CCCNCc2ccc(-c3cc(-c4ccc(CNCCCN5CCN(C)CC5)cc4)c4ccccc4n3)cc2)CC1` [Compound 1e, 2,4-Bis{4-[(3–(4-methylpiperazin-1-yl)propyl)aminomethyl]phenyl}quinoline]: the “Selectivity index HepG2/Tryp.” value in assay [1] is recorded as 6.36. Besides, in assay [2], the “Selectivity index HepG2/W2” value is 8.78. Also, the “Selectivity index HepG2/3D7” value in assay [3] stood at 24.10.
In the case of `COc1ccc2c(-c3ccc(CNCCCCN(C)C)cc3)nc(-c3ccc(CNCCCCN(C)C)cc3)nc2c1` [Compound 3m, 7-Methoxy-2,4-bis{4-[(4-dimethylaminobutyl)aminomethyl]phenyl}quinazoline], the “Selectivity index HepG2/Tryp.” value in assay [1] came out at 33.51. Moreover, the “Selectivity index HepG2/W2” value in assay [2] came to 5.95. In addition, the “Selectivity index HepG2/3D7” value in assay [3] came to 21.30.
Take `COc1ccc2c(-c3ccc(CNCCCCN(C)C)cc3)nc(-c3ccc(CNCCCCN(C)C)cc3)cc2c1` [Compound 2i, 6-Methoxy-1,3-bis{4-[(4-dimethylaminobutyl)aminomethyl]phenyl}isoquinoline]: the “Selectivity index HepG2/Tryp.” value in assay [1] is on record as 16.81. Also, in assay [2], the “Selectivity index HepG2/W2” value is given as 4.48. Besides, the “Selectivity index HepG2/3D7” value in assay [3] was found to be 1.27.
On to `CN(C)CCCNCc1ccc(-c2cc(-c3ccc(CNCCCN(C)C)cc3)c3ccccc3n2)cc1` [Compound 1b, 2,4-Bis{4-[(3-dimethylaminopropyl)aminomethyl]phenyl}quinoline], for which, in assay [1], the “Selectivity index HepG2/Tryp.” value was 5.00. The “Selectivity index HepG2/3D7” value in assay [3] is 8.70.
`c1cc(CNCCCN2CCOCC2)cc(-c2cc(-c3cccc(CNCCCN4CCOCC4)c3)c3ccccc3n2)c1` [Compound 1s, 2,4-Bis{3-[(3-morpholinopropyl)aminomethyl]phenyl}quinoline]: the “Selectivity index HepG2/Tryp.” value in assay [1] was found to be 3.60. In addition, the “Selectivity index HepG2/3D7” value in assay [3] is reported as 12.52.
On to `COc1ccc2nc(-c3ccc(CNCCN(C)C)cc3)nc(-c3ccc(CNCCN(C)C)cc3)c2c1` [Compound 3j, 6-Methoxy-2,4-bis{4-[(2-dimethylaminoethyl)aminomethyl]phenyl}quinazoline], for which, in assay [2], the “Selectivity index HepG2/W2” value came to 2.54. In assay [3], the “Selectivity index HepG2/3D7” value is recorded as 0.77.
Regarding `COc1ccc2cc(-c3ccc(CNCCCN(C)C)cc3)nc(-c3ccc(CNCCCN(C)C)cc3)c2c1` [Compound 2f, 7-Methoxy-1,3-bis{4-[(3-dimethylaminopropyl)aminomethyl]phenyl}isoquinoline], the “Selectivity index HepG2/Tryp.” value in assay [1] was found to be 4.07. Also, the “Selectivity index HepG2/W2” value in assay [2] amounted to 0.45. Also, the “Selectivity index HepG2/3D7” value in assay [3] was found to be 1.44.
In the case of `c1cc(CNCCN2CCOCC2)cc(-c2cc(-c3cccc(CNCCN4CCOCC4)c3)c3ccccc3n2)c1` [Compound 1t, 2,4-Bis{3-[(2-morpholinoethyl)aminomethyl]phenyl}quinoline], the “Selectivity index HepG2/Tryp.” value in assay [1] is reported as 8.54. Further, the “Selectivity index HepG2/3D7” value in assay [3] is on record as 17.09.
Consider `c1ccc2c(-c3ccc(CNCCCN4CCOCC4)cc3)nc(-c3ccc(CNCCCN4CCOCC4)cc3)nc2c1` [Compound 3f, 2,4-Bis{4-[(3-morpholinopropyl)aminomethyl]phenyl}quinazoline], for which the “Selectivity index HepG2/Tryp.” value in assay [1] was 5.58. The “Selectivity index HepG2/3D7” value in assay [3] amounted to 10.76.
In the case of `CN(C)CCCNCc1ccc(-c2cc3ccccc3c(-c3ccc(CNCCCN(C)C)cc3)n2)cc1` [Compound 2b, 1,3-Bis{4-[(3-dimethylaminopropyl)aminomethyl]phenyl}isoquinoline], the “Selectivity index HepG2/Tryp.” value in assay [1] is listed as 9.91. Besides, the “Selectivity index HepG2/W2” value in assay [2] came to 1.15. In addition, in assay [3], the “Selectivity index HepG2/3D7” value is reported as 1.90.
The corresponding values for `COc1ccc2cc(-c3ccc(CNCCCCN(C)C)cc3)nc(-c3ccc(CNCCCCN(C)C)cc3)c2c1` [Compound 2e, 7-Methoxy-1,3-bis{4-[(4-dimethylaminobutyl)aminomethyl]phenyl}isoquinoline] are 17.4, 1.58 and 2.17.
In the case of `c1ccc2c(-c3ccc(CNCCN4CCOCC4)cc3)nc(-c3ccc(CNCCN4CCOCC4)cc3)nc2c1` [Compound 3g, 2,4-Bis{4-[(2-morpholinoethyl)aminomethyl]phenyl}quinazoline], in assay [1], the “Selectivity index HepG2/Tryp.” value is given as 3.21. Besides, the “Selectivity index HepG2/3D7” value in assay [3] was found to be 27.20.
